Assay: Apparent water/1-octanol partition coefficient of SDS hydrophobic ion pair complexes
Details: stoichiometric SDS; UV-visible absorption spectroscopy

In the case of “SDS-HSA complex: hydrophobic ion pair complex of human serum albumin with SDS”, the “partitioning into 1-octanol with SDS” value is reported as “could not be detected”.

— patent US20020032166A1, “Biocompatible cationic detergents and uses therefor” (University Technology Corporation, priority 1992, published 2002)
